# Assay results reported in patent publication US8999654B2, “Method of identifying a compound for the treatment or prevention of obesity” (Omeros Corporation, priority 2003, dated 2015).
# Tested on: WT and GPR88 KO mice
# Experiment: Amphetamine-induced reduction of prepulse inhibition (PPI) of the acoustic startle response
# Details: amphetamine 2.5 mg/kg i.p., tested 30 minutes later, both WT and GPR88 KO mice (129sv), p<0.001
compound,measurement,value
CC(N)Cc1ccccc1 (stereo not shown) [amphetamine],prepulse inhibition (PPI),significant reduction of PPI in both WT and KO
